Assay results as given in patent US20240083933A1, “DISACCHARIDES FOR TREATING BONE DISEASES” (UNIVERSITE DE PICARDIE JULES VERNE, priority 2020, published 2024).

Legend:
MC3T3-E1 cells = experiment: Alkaline phosphatase (ALP) enzymatic activity assay, MC3T3-E1; format: cell-based, mouse; conditions: MC3T3-E1, 13 days post-treatment, BMP-2 100 ng/ml
Description: (§1) ALP is an enzyme synthesized by osteoblasts. It hydrolyses phosphoric esters which inhibit the mineralization by releasing a hydroxyl group and a phosphate. The osteoblasts produce matrix vesicles, reservoirs of alkaline phosphatases and ions, which, when released into the extracellular medium, would initiate the mineralization of the osteoid tissue by promoting the local concentrations of calcium ions and phosphates. Cells have been seeded in 6-well plates at 63700 cells/well for MC3T3-E1 and at 182000 cells/well for HOb. The assay has been performed on a 48-well plate after 13 days of treatment for MC3T3-Et cells and 7 days of treatment for the HOb cells using the BioVision Alkaline Phosphatase activity colorimetric assay Kit (ALP Assay Buffer, pNPP tablets, Alkaline phosphatase enzyme, Stop solution).
(§2) After the PBS rinses, 50 μl of ALP Assay Buffer were added to the wells, the bottom of the wells was scraped and then the 50 μl were taken. A centrifugation for 3 minutes at 13000 G was carried out to remove the insoluble material. […] The optical density was measured at 405 nm.
(§3) After the ALP enzymatic activity assay, a protein assay was performed in order to normalize the results of the ALP assay depending on the number of proteins. […] The optical density was measured at 565 nm to determine the amount of proteins.

HOb cells [1] = experiment: Alkaline phosphatase (ALP) enzymatic activity assay, HOb; format: cell-based, human; conditions: 7 days post-treatment, BMP-2 100 ng/ml
Description: as §1, §2, §3

HOb cells [2] = experiment: Calcium assay (pro-calcifying activity, mineralization) on human primary osteoblastic cells; format: cell-based; conditions: 14 days, mineralizing conditions, BMP-2 100 ng/ml
Procedure: For all experiments, a mouse pre-osteoblastic cell line (MC3T3-E1, ATCC) and human primary osteoblastic cells (HOb, Promocell) were used. The mouse pre-osteoblastic cells were cultured in 75 cm^2 flasks, containing 15 mL of α-MEM medium (M4526, SIGMA) and 10% fetal calf serum (FCS), containing 1% Penicillin/Streptomycin antibiotics and 1% glutamine. Similarly, human HOb cells were cultured in 75 cm 2 flasks containing 15 mL of proliferation medium (Human Osteoblast Proliferation Medium, PromoCell). The cells are maintained in the oven at 37° C., with 5% CO2 and 90% humidity. The medium was changed every three days.
MC3T3-E1 cells were seeded in 6-well plates at 63,700 cells/well to be treated in order to extract RNA or for alkaline phosphatase enzymatic activity assay and in 48-well plates for the calcium assay at 5250 cells/well. The HOb cells were seeded at 182,000 cells/well in 6-well plates for the extraction of RNA or for the alkaline phosphatase enzymatic activity assay; at 15,000 cells/well in 48-well plates for the calcium assay; at 10,000 cells/well in 48-well plates for the MTT test or the WST-1 test and at 100,000 cells/well in 6-well plates for the protein extraction or for the fluorescence.
In order to induce the mineralization, the MC3T3-E1 cells were treated with α-MEM medium containing 5% FCS to which 10 mM of β-glycerophosphate and 50 μg/mL of ascorbic acid are added. […]

[3] = system: bone defects in the skull of rats; experiment: Cranial bone defect model with implanted support; format: in vivo; parameters: key to BMD / BV/TV: =: no difference; N/A: not applicable; *p ≤ 0.05; **p ≤ 0.01; ***p ≤ 0.001
Procedure: The Sprague-Dawley rats are provided by Janvier Labs (Le Genest-Saint-Isle, France) and housed in the PLATAN animal facility of the UPJV. The rats were maintained under a 12-hour day-night cycle, at a temperature of 22±2° C. and 50% humidity.
In order to assess the osteoinductive capacity of the disaccharide via the acceleration of the phenomenon of bone reconstruction and to determine the concentration of the optimal DP2 molecule, and the nature of the most adapted support under the physiological conditions of the fracture consolidation operation (inflammatory reaction, cellular activity), 2 bone defects were made in the skull of rats.
Three different types of supports were tested and two different concentrations of DP2. For this, 102 8-week-old male Sprague-Dawley rats were divided into 12 experimental groups such as: • Support 1: Bioactive calcium phosphate bone substitute (MBCP: Biomaltante, Vigneux-de-Bretagne, France) • Group 1 (S1L1): MBCP support only • Group 2 (S1L2): MBCP support+DP2 [3 mM] • Group 3 (S1L3): MBCP support+DP2 [9 mM] • Group 4 (S1L4): MBCP support+BMP-2 • Support 2: bone substitute consisting of the mineral portion of a bone of bovine origin (Bio-oss; Roissy-en-France; France) • Group 5 (S2L5): Bio-oss support only • Group 6 (S2L6): Bio-oss Support+DP2 [3 mM] • Group 7 (S2L7): Bio-oss support+DP2 [9 mM] • Group 8 (S2L8): Bio-oss support+BMP-2 • Support 3: Type I collagen of the bovine Achilles tendon (Sigma) • Group 9 (S3L9): Collagen support only • Group 10 (S3L10): Collagen support+DP2 [9 mM] • Group 11 (S3L11): Collagen support+DP2 [9 mM] • Group 12 (S3L12): Collagen support+BMP-2
In order to reduce the number of used rats, two bone defects were made per rat; one defect was left blank and was used as an internal control for each rat. Thus, the support-only group is considered the control of the experiment. DP2 and BMP-2 were diluted in sterile saline solution and then mixed with the support and placed in the cranial defect. For the support-only condition, the latter is mixed with sterile saline solution.
After being assigned to one of the 12 groups shown above, the rat was anesthetized using IsoVet (isoflurane) in the mask (5% in the induction and 2 to 3% in maintenance dose). After 5 min, a nociception test was performed by pinching the paw or tail of the animal to check the effectiveness of the anesthesia. On the workstation, a shaving and a disinfection with vetedine were then carried out next to the incision.
A local anesthesia was also carried out with 7 mg/kg of 2% lidocaine (20 mg/mL) diluted to 5 mg/ml.
On the workstation, the incision of the skin with a 15 blade cold scalpel along the midline was performed, followed by the detachment of the subcutaneous tissues. Then, the incision along the midline and the lifting and lateral displacement of the periosteum were made. […] Saline solution was used during the milling steps. The implantation of the support, depending on the group, on the left side was made; the right side, without support, was used as a control to assess the effect of the lesion and the natural repair processes without the presence of support. The periosteum was put back in place and sutured with 7/0 skin suture. The skin was also put back in place and closed with 4/0 skin suture.
The rat was injected with buprenorphine at a dose of 0.05 mg/kg subcutaneously as an analgesic. After awakening, the rat was returned to its conventional housing conditions, by putting 1 rat per cage. The animals were supervised daily and animal welfare monitoring was carried out.

[4] = Bio-oss support + BMP-2 vs Bio-oss only, D 14
[5] = Bio-oss support + BMP-2 vs Bio-oss only, D 29
[6] = Bio-oss support + BMP-2 vs Bio-oss only, D 63
[7] = Bio-oss support + BMP-2 vs Bio-oss only, D 91
[8] = Collagen support + BMP-2 vs Collagen only, D 14
[9] = Collagen support + BMP-2 vs Collagen only, D 29
[10] = Collagen support + BMP-2 vs Collagen only, D 63
[11] = Collagen support + BMP-2 vs Collagen only, D 91
[12] = MBCP support + BMP-2 vs MBCP only, D 14
[13] = MBCP support + BMP-2 vs MBCP only, D 29
[14] = MBCP support + BMP-2 vs MBCP only, D 63
[15] = MBCP support + BMP-2 vs MBCP only, D 91

## BMP-2: bone morphogenic protein, osteoinductive endogenous glycoprotein; marketed as Inductos and Infuse Bone Graft (BMP2)
MC3T3-E1 cells
  ALP enzymatic activity relative to the mineralized medium alone (100%): 307.645±30.440%
HOb cells [1]
  ALP enzymatic activity relative to the mineralized medium alone (100%): 262.567±46.207%
HOb cells [2]
  percentage of mineralization of the HOb cells: 214.153±37.938%
[3]; [4]
  BMD: =
  BV/TV: =
[3]; [5]
  BMD: =
  BV/TV: =
[3]; [6]
  BMD: =
  BV/TV: =
[3]; [7]
  BMD: =
  BV/TV: =
[3]; [8]
  BMD: =
  BV/TV: =
[3]; [9]
  BMD: =
  BV/TV: =
[3]; [10]
  BMD: =
  BV/TV: =
[3]; [11]
  BMD: =
  BV/TV: =
[3]; [12]
  BMD: =
  BV/TV: =
[3]; [13]
  BMD: ↑*
  BV/TV: =
[3]; [14]
  BMD: =
  BV/TV: =
[3]; [15]
  BMD: ↑*
  BV/TV: =
[3]; MBCP+BMP-2 group
  heterotopic bone formation: forms heterotopic bone over time
[3]; collagen support
  continuous bone repair between the old bone and the newly formed bone: does not form a continuous bone repair
